{"source": "paper PMC7108782", "about": "“Direct interaction of metastasis-inducing S100P protein with tubulin causes enhanced cell migration without changes in cell adhesion” (Biochemical Journal, 2020)", "key": {"[1]": {"target": "T1, S100P (Homo sapiens, UniProt P25815)", "T1 construct": "made in house", "T1 sequence (P25815 1-95)": "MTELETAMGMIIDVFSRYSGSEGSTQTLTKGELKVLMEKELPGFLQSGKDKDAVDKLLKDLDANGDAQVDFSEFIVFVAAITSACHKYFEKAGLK", "assay": "Isothermal titration calorimetry (ITC) of tubulin peptides with S100P", "type": "binding", "conditions": "25°C", "procedure": "Measurements were conducted using an ITC-200 instrument (Microcal) as previously described. ITC titrations were performed in 20 mM MES pH 6.1, 50 mM NaCl, 1.0 mM TCEP and 5 mM CaCl2 (for Ca^2+-form of S100P) at 25°C. Due to low solubility, peptide solutions at concentrations of 10–400 µM were placed in the cell and titrated with S100P at concentrations of 0.5–3 mM, depending on the peptide concentration. Data were integrated and fitted to a single site binding equation using Origin 7 software which was included with the ITC module (Malvern Microcal, Malvern, U.K.)."}, "[2]": {"target": "T1, S100P", "assay": "NMR 1H,15N HSQC of 15N-labelled S100P with tubulin peptides", "type": "binding", "conditions": "0.1 mM 15N-S100P + equimolar peptide, 40°C, 20 mM MES, 50 mM NaCl, 0.5 mM CaCl2, 2 mM TCEP, pH 6.1, 800 MHz"}, "[3]": {"tested_on": "S100P - α,β-tubulin", "assay": "SPR inhibition of S100P binding to α,β-tubulin-coated chip by peptides", "design": "species or system human", "conditions": "20 µM peptide, 1 µM S100P", "procedure": "For SPR binding assays, α,β-tubulin proteins described earlier were immobilised on a carboxymethylated dextran surface of a CM5 chip using BS^3 for use in Biocore X100. Recombinant S100P produced as described previously was used as a ligand in different concentrations at 20, 50, 100, 200, 1000, 2000 nM for calculation of the equilibrium dissociation constant (Kd) from the association/dissociation rate constants and from the extent of binding near equilibrium (Supplementary Table S2), as described previously. To detect the effects of tubulin peptides on the interaction of tubulin, different concentrations of tagged and untagged peptides were mixed with 1 µM S100P first and the mixtures were then applied to the tubulin-coated chip. The relative changes in kinetics and binding extents with different peptides were calculated using software provided by the manufacturer."}, "[4]": {"tested_on": "HeLa-A19 cells", "assay": "Boyden chamber cell migration, S100P-inducible HeLa-A19", "type": "cell-based, human", "conditions": "NMIIA-containing HeLa cells, 20 µM", "description": "Cell migration rate (%) = M/G × 100."}}, "data": [{"smiles": "CC[C@H](C)[C@H](NC(=O)[C@H](CCCNC(=N)N)NC(=O)[C@H](CC(=O)O)NC(=O)[C@H](CC(C)C)NC(=O)[C@@H](NC(=O)[C@H](CC(C)C)NC(=O)[C@@H](N)CC(=O)O)C(C)C)C(=O)N[C@@H](CCCNC(=N)N)C(=O)N[C@@H](CCCCN)C(=O)N[C@@H](CC(C)C)C(=O)N[C@@H](C)C(=O)N[C@@H](CC(=O)O)C(=O)N[C@@H](CCC(N)=O)C(=O)N[C@@H](CS)C(=O)N[C@H](C(=O)NCC(=O)N[C@@H](CC(C)C)C(=O)N[C@@H](CCC(N)=O)C(=O)NCC(=O)N[C@@H](Cc1ccccc1)C(=O)N[C@@H](CC(C)C)C(=O)N[C@H](C(=O)N[C@@H](Cc1ccccc1)C(=O)N[C@@H](Cc1c[nH]cn1)C(=O)N[C@@H](CO)C(=O)N[C@@H](Cc1ccccc1)C(=O)NCC(=O)NCC(=O)NCC(=O)N[C@H](C(=O)O)[C@@H](C)O)C(C)C)[C@@H](C)O", "note": "[DLV]", "values": [{"measurement": "Kd", "setting": "[1]; 20 mM MES pH 6.1, 50 mM NaCl, 5 mM CaCl2, best-fit curve, read-out: Kd (Figure 7B)", "value": "< 10", "unit": "µM"}, {"measurement": "TΔS", "setting": "[1]; Figure 7B, pH 6.1", "value": 4.0, "unit": "kcal/mol"}, {"measurement": "enthalpy change (ΔH)", "setting": "[1]; Figure 7B, pH 6.1", "value": -4.1, "unit": "kcal/mol"}, {"measurement": "effect on HSQC spectra of S100P / binding", "setting": "[2]", "value": "caused significant chemical shift changes"}, {"measurement": "inhibition of extent of binding of S100P to α,β-tubulin", "setting": "[3]", "value": "over 50%"}, {"measurement": "block of S100P-induced increase in migration", "setting": "[4]", "value": 54, "unit": "%"}]}]}
